{"source": "ChEMBL document CHEMBL1122024", "about": "“Quantitative structure-inhibitory activity relationships of phenols and fatty acids for Bacillus subtilis spore germination” (J Med Chem, 1982)", "test_system": "Bacillus subtilis", "experiment": "Inhibition of Bacillus subtilis PCI219 spore germination, expressed as log 1/I50", "format": "functional", "data": [{"smiles": "Oc1ccccc1", "note": "[PHENOL]", "values": [{"measurement": "Log 1/I50", "result": "2.82 1/M"}]}]}
